Test results: US10246456B2, “IRAK4 inhibiting agents” (BIOGEN MA INC., priority 2014, dated 2019)

Amino acid sequences for entries named in this document (tags omitted).
UniProt Q9NWZ3, whole entry, species assumed: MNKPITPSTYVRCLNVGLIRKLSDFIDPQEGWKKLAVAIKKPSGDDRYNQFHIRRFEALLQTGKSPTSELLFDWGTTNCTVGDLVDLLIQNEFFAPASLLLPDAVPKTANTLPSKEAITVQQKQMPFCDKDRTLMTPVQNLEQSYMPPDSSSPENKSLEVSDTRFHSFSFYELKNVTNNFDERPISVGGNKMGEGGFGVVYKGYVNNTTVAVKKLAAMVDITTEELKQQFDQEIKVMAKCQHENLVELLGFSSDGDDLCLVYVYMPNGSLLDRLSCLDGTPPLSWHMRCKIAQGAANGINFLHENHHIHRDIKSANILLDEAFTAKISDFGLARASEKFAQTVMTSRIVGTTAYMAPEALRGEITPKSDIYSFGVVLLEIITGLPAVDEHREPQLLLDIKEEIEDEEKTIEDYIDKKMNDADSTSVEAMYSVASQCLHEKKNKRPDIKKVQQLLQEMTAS

Target: IRAK4 (Homo sapiens (Human), UniProt Q9NWZ3)
Test: IRAK-4 AlphaScreen biochemical kinase assay
Conditions: IC50, 1 nM IRAK4, 1 mM ATP, 3.5 h at RT
Experimental: The biochemical assay is in a AlphaScreen format. The kinase reaction is based on the IRAK-4 phosphorylation of a biotin labeled peptide. The phosphopeptide is incubated with anti-phosphothreonine antibody as well as streptavidin- and protein A-coated beads. Binding of the protein-A coated beads to the antibody and the streptavidin beads to the peptide, leads to an energy transfer from one bead to the other, ultimately producing a luminescent/fluorescent signal.
Generally, the kinase reaction is carried out at 1 nM IRAK4, 1.6 μM peptide, 1 mM ATP in reaction buffer 50 mM Hepes, 60 mM NaCl, 5 mM MgCl2, 0.25 mM MnCl2, 2 mM DTT, 0.01% BSA, 0.01% Tween-20) for 3.5 h at RT.

## CN(C)C(=O)c1cccc(-n2ncc3ccc(-c4cncc(N)c4)cc32)n1 [Example 64, 6-(6-(5-aminopyridin-3-yl)-1H-indazol-1-yl)-N,N-dimethylpicolinamide]
  IC50: 100 to 1000 nM
